# Experimental data reported in patent US11643388B2, “Inhibitors of alpha 2 beta 1 integrin and methods of use thereof” (The Regents of the University of California, priority 2020, dated 2023).
# Sequences of proteins named here, by UniProt entry; tags and fusion partners are left off. Residues count along the entry.
# UniProt P05556, 21-798 limits assumed: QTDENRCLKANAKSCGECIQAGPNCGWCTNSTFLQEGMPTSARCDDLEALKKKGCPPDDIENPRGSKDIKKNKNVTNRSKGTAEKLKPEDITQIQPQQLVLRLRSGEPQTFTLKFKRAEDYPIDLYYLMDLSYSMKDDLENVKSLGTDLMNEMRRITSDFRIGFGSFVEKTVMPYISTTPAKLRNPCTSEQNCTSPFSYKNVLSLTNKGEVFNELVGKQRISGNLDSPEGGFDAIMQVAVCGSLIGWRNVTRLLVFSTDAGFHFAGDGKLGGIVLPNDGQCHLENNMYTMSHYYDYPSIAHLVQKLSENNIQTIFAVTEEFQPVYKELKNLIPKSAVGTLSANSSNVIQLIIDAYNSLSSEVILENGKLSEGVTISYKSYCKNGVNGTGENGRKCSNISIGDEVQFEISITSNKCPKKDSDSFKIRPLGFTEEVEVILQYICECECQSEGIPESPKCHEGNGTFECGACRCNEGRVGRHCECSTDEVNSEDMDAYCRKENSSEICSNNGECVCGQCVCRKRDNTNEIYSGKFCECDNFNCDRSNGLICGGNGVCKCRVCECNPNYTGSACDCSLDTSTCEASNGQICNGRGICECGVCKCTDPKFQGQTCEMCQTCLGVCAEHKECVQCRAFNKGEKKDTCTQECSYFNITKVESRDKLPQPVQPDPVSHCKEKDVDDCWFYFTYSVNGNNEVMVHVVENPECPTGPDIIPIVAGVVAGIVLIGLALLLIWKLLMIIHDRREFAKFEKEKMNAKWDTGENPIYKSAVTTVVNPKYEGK
# UniProt P17301, 30-1181 limits assumed: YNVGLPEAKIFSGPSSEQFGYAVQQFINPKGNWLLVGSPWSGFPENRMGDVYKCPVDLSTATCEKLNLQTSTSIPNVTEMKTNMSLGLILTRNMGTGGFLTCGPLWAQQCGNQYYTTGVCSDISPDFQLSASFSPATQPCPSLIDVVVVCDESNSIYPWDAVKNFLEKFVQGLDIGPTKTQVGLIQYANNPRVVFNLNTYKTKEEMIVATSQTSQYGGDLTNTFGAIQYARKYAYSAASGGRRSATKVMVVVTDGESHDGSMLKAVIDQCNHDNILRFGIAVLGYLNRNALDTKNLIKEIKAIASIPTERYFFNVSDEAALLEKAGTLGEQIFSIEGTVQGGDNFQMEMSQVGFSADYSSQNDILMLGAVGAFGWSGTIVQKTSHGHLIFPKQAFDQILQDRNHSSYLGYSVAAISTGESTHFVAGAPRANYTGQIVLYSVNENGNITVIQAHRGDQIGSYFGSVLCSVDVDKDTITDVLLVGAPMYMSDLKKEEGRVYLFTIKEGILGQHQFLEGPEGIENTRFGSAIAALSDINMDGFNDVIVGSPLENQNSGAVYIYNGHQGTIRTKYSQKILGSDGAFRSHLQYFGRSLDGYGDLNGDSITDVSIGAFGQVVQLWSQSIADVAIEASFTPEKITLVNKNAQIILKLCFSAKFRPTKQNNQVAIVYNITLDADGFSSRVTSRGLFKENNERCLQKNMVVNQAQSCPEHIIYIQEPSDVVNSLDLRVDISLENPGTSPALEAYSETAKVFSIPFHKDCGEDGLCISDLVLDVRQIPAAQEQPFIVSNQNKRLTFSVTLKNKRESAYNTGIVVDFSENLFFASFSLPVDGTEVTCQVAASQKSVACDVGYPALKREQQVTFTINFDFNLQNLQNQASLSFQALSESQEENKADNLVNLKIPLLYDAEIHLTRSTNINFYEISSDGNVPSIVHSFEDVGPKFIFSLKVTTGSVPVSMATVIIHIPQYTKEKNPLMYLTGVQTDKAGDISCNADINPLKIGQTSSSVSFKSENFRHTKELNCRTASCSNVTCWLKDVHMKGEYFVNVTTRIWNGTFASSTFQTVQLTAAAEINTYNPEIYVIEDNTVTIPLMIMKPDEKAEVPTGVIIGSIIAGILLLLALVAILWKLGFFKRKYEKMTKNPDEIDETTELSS
# Molecular target: α2β1 (Homo sapiens, UniProt P05556+P17301)
# Assay: α2β1 cell adhesion
# Type: cell-based
# Conditions: read-out: α2β1 Cell Adhesion IC50
compound,measurement,value
O=C(NC[C@H](NC(=O)c1ccc(C(=O)NCc2ccccc2O)cc1Cl)C(=O)O)N[C@@H]1CCc2ccccc21,IC50,< 0.5 µM
